DSG3 Ab inh: blocks pemphigus antibody binding to human desmoglein-3 | AID 588358 | DSG3-coupled beads, scFv-anti-DSG3-GFP binding, flow cytometry; hits give low values | binding (percent of control), % at 10 µM | P32926 | 310,000 compounds, 0.48% hits;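 active = binding more than 3 SD below its plate's average and above zero; inconclusive = below that plate limit but binding exactly zero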;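 also: hits lower antibody fragment binding to DSG3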
PABP FP inh: PABP-poly(A) binding inhibition; P11940; PABP-poly(A) RNA binding, fluorescence polarization; calls only at 35 µM; 290,000 compounds, 1% hits;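 also: calls also rest on retests at 20 µM and on dose response follow-up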
PABP1 MLLE inh: blocks PAM2 peptide binding to the PABP1 MLLE domain; P11940; GST-MLLE / FITC-PAM2 fluorescence polarization; inhibition, % at 20 µM; 360,000 compounds, 0.36% hits; AID 588489; in the data active = inhibition above about 35%, passing the limit was not always enough
UUG fidelity: alters start codon recognition fidelity in yeast; AID 602363; activity score, % at 18.7 µM; 350,000 tested, 0.13% active; S. cerevisiae UUG-firefly luciferase reporter, luminescence/redox ratio;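 active means replicate mean at a twofold rise or more, about +100% in these data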;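 further: firefly luciferase made from a UUG start codon reports start codon fidelity; reporter light over untreated wells divided by growth signal over untreated wells; some hits fall short of that in this replicate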
eIF4H FP inh: inhibitors of RNA binding by human eIF4H; 290,000 compounds, 0.94% hits; inhibition, % at 35 µM; eIF4H fluorescence polarization binding assay;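 also: calls also rest on retests at 20 µM and on dose response follow-up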
Large screens that a line does not name were inactive. Most compounds without a hit are left out; they make up all but 1.5% or so of the library. Unless noted, no rule for the calls is given here.

O=C(Cc1ccccc1)Nc1ccc(NC(=O)c2cccs2)cc1Cl	DSG3 Ab inh 72 (no result: UUG fidelity)
CCOC(=O)CN1C(=O)/C(=C2\SC(=S)N(NC(=O)c3cccnc3)C2=O)c2ccccc21	PABP1 MLLE inh 43
O=[N+]([O-])c1cc(Br)cc(C=Nc2ccc3c(c2)OCO3)c1O	PABP FP inh active, eIF4H FP inh 69
Cc1cnc(CN2CCc3c([nH]c4ccccc34)C2CC(C)C)[nH]1 (configuration not stated)	PABP FP inh active (no result: UUG fidelity)
C[C@@H]1CN([C@@H](C)CO)C(=O)c2cc(NC(=O)CCC(F)(F)F)ccc2O[C@H]1CN(C)C	none (no result: DSG3 Ab inh, PABP FP inh, PABP1 MLLE inh, eIF4H FP inh)
Cc1oc(S(=O)(=O)N2CCCCC2)cc1NC(=O)Nc1ccc(F)cc1	DSG3 Ab inh 91 (no result: UUG fidelity)
O=C(Nc1ccc(F)cc1)Nc1ccc(S(=O)(=O)N2CCCC2)cc1	none (no result: PABP FP inh, eIF4H FP inh)
Cc1ccc[n+](-c2nc([O-])sc2/C=N/Nc2ccc([N+](=O)[O-])cc2)c1	PABP1 MLLE inh 60
CO[C@H]1CN(C)C(=O)c2ccc(NS(=O)(=O)c3c(C)noc3C)cc2OC[C@@H](C)NC[C@@H]1C	none (no result: DSG3 Ab inh, PABP FP inh, PABP1 MLLE inh, eIF4H FP inh)
COc1ccc(S(=O)(=O)N(C)C[C@H]2OCCCC[C@H](C)Oc3ccc(NC(=O)CCCN(C)C)cc3C(=O)N([C@@H](C)CO)C[C@@H]2C)cc1	none (no result: DSG3 Ab inh, PABP FP inh, PABP1 MLLE inh, eIF4H FP inh)
O=C(NC1CCC(O)CC1)c1cc(-c2ccco2)nc2ccccc12 (configuration not stated)	PABP FP inh active, eIF4H FP inh 85 (no result: UUG fidelity)
COc1cccc(-c2cc(C(=O)NC3CC3)c3ccccc3n2)c1	none
O=C(NCC1CCCO1)c1cc(-c2ccncc2)nc2ccccc12 (configuration not stated)	none (no result: PABP FP inh, UUG fidelity, eIF4H FP inh)
O=C(NCC1CCCO1)c1cc(-c2ccco2)nc2ccccc12 (configuration not stated)	PABP FP inh active, eIF4H FP inh 82
O=C(NCC1CCCO1)c1cc2nc(-c3ccco3)cc(C(F)(F)Cl)n2n1 (configuration not stated)	PABP FP inh active, eIF4H FP inh 83
O=C(N[C@H]1CC[C@H](CCNC(=O)C2CCOCC2)O[C@H]1CO)c1ccccn1	none (no result: DSG3 Ab inh, PABP FP inh, PABP1 MLLE inh, eIF4H FP inh)
N#C/C(=C\c1ccc(-c2ccccc2[N+](=O)[O-])o1)C(=O)N1CCOCC1	eIF4H FP inh 61 (no result: UUG fidelity)
C[C@H]1CCCCO[C@H](CN(C)Cc2ccc3c(c2)OCO3)[C@@H](C)CN([C@@H](C)CO)C(=O)c2cc(NS(=O)(=O)c3ccc(Cl)cc3)ccc2O1	none (no result: DSG3 Ab inh, PABP FP inh, PABP1 MLLE inh, eIF4H FP inh)
O=C(O)c1cn(-c2ccc(F)cc2)c2cc(Cl)c(F)cc2c1=O	none
CCOC(=O)c1cn(-c2ccc([N+](=O)[O-])cc2)c2cc(Cl)c([N+](=O)[O-])cc2c1=O	DSG3 Ab inh 62 (no result: UUG fidelity)
Cc1nc(N)c(Cc2ccccc2F)c(N)n1	DSG3 Ab inh 24 (no result: UUG fidelity)
Nc1nc(N)c(Cc2ccc(Cl)cc2Cl)c(N)n1	none (no result: UUG fidelity)
COc1ccc(-c2cn3ccc4ccccc4c3n2)cc1	DSG3 Ab inh 86
N#Cc1cccc(-c2ccc3c(c2)[C@@H]2[C@@H](CCN2C(=O)c2ccccc2F)[C@@H](CO)N3)c1	none (no result: DSG3 Ab inh, PABP FP inh, PABP1 MLLE inh, eIF4H FP inh)
Cc1ccc(NC(=O)C2C(c3ccccc3)C2(Cl)Cl)c(C)c1 (configuration not stated)	PABP FP inh active, eIF4H FP inh inconclusive (no result: DSG3 Ab inh)
C[C@@H]1CN([C@H](C)CO)C(=O)c2cc(NS(=O)(=O)c3cn(C)cn3)ccc2O[C@@H](C)CCCCO[C@@H]1CN(C)Cc1ccc(C(=O)O)cc1	none (no result: DSG3 Ab inh, PABP FP inh, PABP1 MLLE inh, eIF4H FP inh)
CC1=NN(c2ccccc2)C(=O)/C1=C\c1ccc(Oc2ccc([N+](=O)[O-])cc2[N+](=O)[O-])cc1	none (no result: UUG fidelity)
COc1cc(/C=C2\C(=O)N(c3ccccc3)N=C2C)ccc1Oc1ccc([N+](=O)[O-])cc1[N+](=O)[O-]	PABP FP inh active, eIF4H FP inh active (no result: UUG fidelity)
C[C@H](CO)N1C[C@H](C)[C@H](CN(C)S(=O)(=O)c2cn(C)cn2)Oc2ncc(/C=C/c3ccccc3)cc2C1=O	none (no result: DSG3 Ab inh, PABP FP inh, PABP1 MLLE inh, eIF4H FP inh)
O=C(COC(=O)c1cccc(NS(=O)(=O)c2ccc(F)c(F)c2)c1)NC(=O)NC1CCCC1	PABP FP inh active (no result: UUG fidelity)
O=C(C[C@H]1C=C[C@H](NC(=O)C2CCC2)[C@@H](CO)O1)NCC1CC1	none (no result: DSG3 Ab inh, PABP FP inh, PABP1 MLLE inh, eIF4H FP inh)
CCN(CC)S(=O)(=O)c1ccc2c(c1)nc(SCn1nnc3ccccc3c1=O)n2CC	PABP1 MLLE inh 43
CCNC(=O)C[C@H]1CC[C@@H]2[C@@H](COc3ccc(NC(=O)Nc4cccc(C)c4)cc3C(=O)N2C)O1	none (no result: DSG3 Ab inh, PABP FP inh, PABP1 MLLE inh, eIF4H FP inh)
COc1cccc(N2C(=O)CC(N3CCc4ccccc43)C2=O)c1 (configuration not stated)	none
COc1ccc2c(c1)CCN1C2CCN2C(=O)CCC21 (configuration not stated)	PABP FP inh active, PABP1 MLLE inh 58, eIF4H FP inh 73 (no result: UUG fidelity)
CCn1c(SCC(=O)N/N=C/c2c[nH]c3ccccc23)nnc1-c1ccc(Cl)cc1	eIF4H FP inh active (no result: UUG fidelity)
C[C@@H]1CCCCO[C@@H](CN(C)S(=O)(=O)c2ccc(F)cc2)[C@H](C)CN([C@H](C)CO)C(=O)c2cc(NC(=O)Nc3ccc(C(F)(F)F)cc3)ccc2O1	none (no result: DSG3 Ab inh, PABP FP inh, PABP1 MLLE inh, eIF4H FP inh)
CCCOC(=O)Nc1nc2ccccc2o1	PABP FP inh active, eIF4H FP inh 72
CCCOC(=O)c1c(NC(=O)C2CCCO2)sc(C(=O)OC)c1C (configuration not stated)	PABP1 MLLE inh 45
O=C(Nc1cc(F)ccc1F)N1CCCCN2[C@H](C1)[C@@H](c1ccc(-c3ccccc3)cc1)[C@@H]2CO	none (no result: DSG3 Ab inh, PABP FP inh, PABP1 MLLE inh, eIF4H FP inh)
C[C@@H]1CN([C@@H](C)CO)C(=O)c2cccc(NC(=O)NC3CCCCC3)c2O[C@H]1CN(C)S(C)(=O)=O	none (no result: DSG3 Ab inh, PABP FP inh, PABP1 MLLE inh, eIF4H FP inh)
C=C(C)CCOC(=O)C(CC(=O)O)NCc1ccco1 (configuration not stated)	PABP FP inh active, eIF4H FP inh inconclusive
CCCNC(=O)C[C@@H]1CC[C@H]2[C@@H](COc3ccc(NC(=O)Nc4ccccc4)cc3C(=O)N2C)O1	none (no result: DSG3 Ab inh, PABP FP inh, PABP1 MLLE inh, eIF4H FP inh)
Cn1cccc1C1Nc2ccccc2NC2=C1C(=O)CC(C)(C)C2 (configuration not stated)	PABP FP inh active
CC1(C)CC(=O)C2=C(C1)Nc1ccccc1NC2c1cccc(F)c1 (configuration not stated)	none
C[C@H](CO)N1C[C@H](C)[C@H](CN(C)C(=O)Nc2ccc3c(c2)OCO3)Oc2ccc(NC(=O)CCC(F)(F)F)cc2CC1=O	none (no result: DSG3 Ab inh, PABP FP inh, PABP1 MLLE inh, eIF4H FP inh)
CN(C)c1ccc2c(c1)[C@H]1C[C@H](CC(=O)NCc3ccc(Cl)cc3)O[C@@H](CO)[C@H]1O2	none (no result: DSG3 Ab inh, PABP FP inh, PABP1 MLLE inh, eIF4H FP inh)
Cc1noc(C)c1NC(=O)Nc1ccc2c(c1)C(=O)N([C@H](C)CO)C[C@H](C)[C@H](CN(C)CC1CC1)O2	none (no result: DSG3 Ab inh, PABP FP inh, PABP1 MLLE inh, eIF4H FP inh)
Cc1cc(O)c(-c2cc(O)c(C)cc2O)cc1O	PABP1 MLLE inh 48
Nc1ccc(-c2nc3ccccc3o2)cc1	PABP FP inh active
Cc1cc(C(=O)Nc2ccc3c(c2)C(=O)N(C)[C@@H]2CC[C@@H](CC(=O)N[C@H](C)c4ccccc4)O[C@H]2CO3)no1	none (no result: DSG3 Ab inh, PABP FP inh, PABP1 MLLE inh, eIF4H FP inh)
Cc1ccccc1-n1c(SCC(=O)Nc2ccccc2)nc2nc3c(cc2c1=O)CCCC3	eIF4H FP inh active

Screening results deposited in PubChem BioAssay by several laboratories.
